This experiment addresses 5-hydroxytryptamine receptor 1A (Mus musculus, UniProt Q64264). In words: Inhibitory activity towards 5-hydroxytryptamine 1A receptor by the displacement of [3H]8-OH-DPAT in mouse hippocampus. Format: tissue-based. The method in brief:
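Membranes incubated in triplicate with 1.2 nM [3H]8-OH-DPAT plus varying analogue concentrations, 30 min at 23 °C, 0.5 mL final volume. Filtered on PEI-pretreated GF/B; scintillation counting. IC50 derived from seven-point inhibition curves.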
On the technique in general: In a radioligand displacement assay an active substance lowers the binding of a labelled ligand.

By UniProt entry, the sequences of proteins in these tests, tags left out.
UniProt Q64264, whole entry: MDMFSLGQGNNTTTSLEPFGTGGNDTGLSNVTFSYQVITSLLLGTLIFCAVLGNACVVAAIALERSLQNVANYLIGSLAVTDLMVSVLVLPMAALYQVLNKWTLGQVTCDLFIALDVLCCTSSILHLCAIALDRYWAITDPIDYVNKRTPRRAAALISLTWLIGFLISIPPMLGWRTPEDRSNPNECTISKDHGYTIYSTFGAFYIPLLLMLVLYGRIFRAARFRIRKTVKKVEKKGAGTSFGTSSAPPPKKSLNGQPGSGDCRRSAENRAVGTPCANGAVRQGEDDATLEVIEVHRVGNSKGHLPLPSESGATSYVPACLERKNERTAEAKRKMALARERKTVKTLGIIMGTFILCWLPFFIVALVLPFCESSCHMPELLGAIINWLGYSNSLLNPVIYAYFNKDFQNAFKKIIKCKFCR

A word on the IC50: it is the concentration needed to halve the response being measured.

Each structure is given as a SMILES string.

`NCCc1c[nH]c2ccc(O)cc12` [SEROTONIN] came in with an IC50 of 5 nM.

The values above are taken from ChEMBL document CHEMBL1124958 (J Med Chem, 1990).
